# Antibody variant affinities, Ab-14 heavy chain, assay B

The measurements come from Li et al. 2023 (doi:10.1038/s41467-023-39022-2) through the FLAb antibody collection.

Target peptide (SARS-CoV-2 spike, HR2 region): PDVDLGDISGINAS

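These sequences belong to a second round, designed from the earlier measurements on random variants of the parent. Group labels follow the data file (Ctrl: baseline library sampled from a position-specific scoring matrix, with some repeated check sequences; En: ensemble of fine-tuned language models; GP: Gaussian process model; GPLM: also part of the Gaussian process libraries; HC: hill climbing; Gen: genetic algorithm; Gibbs: Gibbs sampling; a sequence that several methods proposed may carry one label only). AlphaSeq pools MATa yeast showing the antibodies with MATalpha yeast showing the peptide. After mating in shaken culture at 30 °C for 16 h, diploids were selected and their barcode pairs sequenced. A regression on co-assayed BCL2-family reference pairs converts the normalised counts of each replicate to an apparent Kd. There are six technical replicates.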

Ab-14 is the parent antibody, in scFv form: VH, then a 15-residue (Gly4Ser)3 linker, then VL. The light chain is unchanged in all variants.
VH: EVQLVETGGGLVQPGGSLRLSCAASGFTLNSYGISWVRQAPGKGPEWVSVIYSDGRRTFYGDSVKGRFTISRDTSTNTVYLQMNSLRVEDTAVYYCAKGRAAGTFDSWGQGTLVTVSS
VL: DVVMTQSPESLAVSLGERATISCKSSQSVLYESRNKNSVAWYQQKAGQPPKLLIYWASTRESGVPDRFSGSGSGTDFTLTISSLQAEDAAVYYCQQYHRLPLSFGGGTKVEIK

Each variant is given by its three heavy chain CDRs, as the data file delimits them; those of the parent are GFTLNSYGIS, VIYSDGRRTFYGDSVK, GRAAGTFDS.
The Kd shown is the geometric mean over detected replicates; a lower Kd is a better binder.
"not detected" marks a missing value. The strain was present, yet no cells mated with the target were sequenced in any replicate, which points to weak or no binding.
Three control strains display no target. For all heavy chain designs, 1% of the pairings with them gave a signal, with a median of 120 nM and one signal in twenty below 7.0 nM, so weak values seen in few replicates may be background. For each scFv, signals with the empty controls are counted beside the result.
The authors averaged sequences with at least three values out of six and counted those with two or fewer as poor binders.
Values of this round are not directly comparable with the first-round values of the same sequences.
The parent sequence was in this pool as ten entries: three were never detected, three once, and four in most replicates, with averages from 2.2 nM to 240 nM.

| # | CDR-H1 | CDR-H2 | CDR-H3 | group | apparent Kd | replicates with signal | empty controls |
|---|---|---|---|---|---|---|---|
| 1 | GFTLNSYGIS | VIYSDGRRTFYKDSVK | GRSAGTFDS | Ctrl | 22 nM | 2 of 6 | 0 of 18 |
| 2 | GFTLESYGIS | VIYSDGRRTFYDDSVK | GQIAGTFDS | GP_HC | 4.0 nM | 6 of 6 | 0 of 18 |
| 3 | GFDLDEYGIS | VIYADGQRTAYADDVK | GENAGTFDV | En_Gen | 1.4 nM | 6 of 6 | 0 of 18 |
| 4 | GFSLNSYGIS | VIYSDGRRTFYMDAVK | GRWAGTFDS | Ctrl | not detected | 0 of 6 | 0 of 18 |
| 5 | GFELNSYGIS | VIYSDGKRTFYGDDVK | GRQAGTFDS | GP_Gibbs | 5.7 nM | 6 of 6 | 0 of 18 |
| 6 | GFTLESYGIS | VIYSDGRRTFYGDSVK | GKIAGTFDS | GP_Gen | 6.4 nM | 6 of 6 | 1 of 18 |
| 7 | GFNLNEYGIS | VIYADGRRTFYADSVK | GQIAGTFIQ | En_HC | 890 pM | 6 of 6 | 0 of 18 |
| 8 | GFDLNEYGIS | VIYADGKRTAYADSVK | GEVAGTFDT | En_Gen | 370 pM | 6 of 6 | 0 of 18 |
| 9 | GFTLESYGIS | VIYSDGRRTFYDDSVK | GQCAGTFDS | GP_HC | 220 nM | 2 of 6 | 1 of 18 |
| 10 | GFTLNSYGIS | VIYSDGKRTFYDDSVK | GNAAGTFDS | Ctrl | 3.2 nM | 6 of 6 | 1 of 18 |
| 11 | GFDLNEYGIS | VIYADGRRTFYIDSVK | GENAGTFIM | En_HC | not detected | 0 of 6 | 0 of 18 |
| 12 | GFNLNSYGIS | VIYSDGRRTFYTDSVK | GQAAGTFDS | GPLM_Gen | 3.4 nM | 6 of 6 | 1 of 18 |
| 13 | GFTLQSYGIS | VIYSDGRRTFYGDSVK | GRAAGTFDS | Ctrl | not detected | 0 of 6 | 1 of 18 |
| 14 | GFPLNEYGIS | VIYSDGRRTYYGDSVK | GRAAGTFDS | GP_Gibbs | not detected | 0 of 6 | 0 of 18 |
| 15 | GFTLNSYGIS | VIYSDGRRTFYADSVK | GREAGTFFS | GP_HC | not detected | 0 of 6 | 0 of 18 |
| 16 | GFTLNSYGIS | VIYSDGRRTFYKDSVK | GRAAGTFDN | Ctrl | 31 nM | 2 of 6 | 0 of 18 |
| 17 | GFELNSYGIS | VIYSDGKRTFYGDNVK | GRTAGTFDS | GP_Gen | 3.8 nM | 6 of 6 | 2 of 18 |
| 18 | EFDLQEYGIS | VIYADGQRVAYKDNVK | GNGGVVFIA | En_Gibbs | not detected | 0 of 6 | 0 of 18 |
| 19 | GFGLDEYGIS | VIYADGRRTFYADSVK | GENAGTFDI | En_HC | 8.9 nM | 6 of 6 | 0 of 18 |
| 20 | GFQLNEYGIS | VIYSDGRRTFYGDSVK | GKAAGTFDK | GP_Gen | 2.5 nM | 6 of 6 | 0 of 18 |
| 21 | GFTLESYGIS | VIYSDGRRTFYADAVK | GRAAGTFDS | GPLM_Gen | not detected | 0 of 6 | 0 of 18 |
| 22 | GFDLNEYGIS | VIYADGRRTFYKDSVK | GENAGTFDS | En_HC | 2.0 nM | 4 of 6 | 0 of 18 |
| 23 | GFDLNEYGIS | VIYADGRRTFYADSVK | GQVAGTFDS | En_HC | 490 pM | 6 of 6 | 0 of 18 |
| 24 | GFSLEEQGIS | VIYADGSRRAYAQDVK | GGTAVGFVV | En_Gibbs | 31 nM | 1 of 6 | 0 of 18 |
| 25 | GFDLNSYGIS | VIYSDGKRTAYGDSVK | GRAAGTFDS | GP_Gen | 880 pM | 6 of 6 | 0 of 18 |
| 26 | GFSLNEYGIS | VIYSDGRRTFYGDSVK | GRAAGTFCV | GP_HC | not detected | 0 of 6 | 0 of 18 |
| 27 | GFNMDEYGIS | VIYADGRRTFYTESVK | GVVTISGKV | En_Gibbs | not detected | 0 of 6 | 0 of 18 |
| 28 | GFDLNEYGIS | VIYADGRRTQYIDSVK | GNQAGTFDQ | En_HC | 1.3 nM | 6 of 6 | 0 of 18 |
| 29 | GFTLNSYGIS | VIYSDGRRTAYADSVK | GRIAGTFDS | Ctrl | 740 pM | 6 of 6 | 1 of 18 |
| 30 | GFDLNEYGIS | VIYADGMRSAYADDVK | GENAGTFDV | En_Gen | 900 pM | 6 of 6 | 0 of 18 |
| 31 | GFTINSYGIS | VIYSDGRRTFYKDNVR | GRAAGTFDS | Ctrl | not detected | 0 of 6 | 0 of 18 |
| 32 | GFDLNEYGIS | VIYADGVRTFYSDSVK | GEVAGTFVS | En_HC | 400 pM | 6 of 6 | 2 of 18 |
| 33 | GFDLNKYGIS | VIYSDGRRTFYGDSVK | GRAYHQFDS | Ctrl | not detected | 0 of 6 | 0 of 18 |
| 34 | GFTLNSYGIS | VIYSDGKRTFYGDSVK | GQTAGTFDV | GP_Gibbs | not detected | 0 of 6 | 0 of 18 |
| 35 | GFSLDEYGIS | VIYADGVRTEYSKNVK | GQVDFKLRG | En_Gibbs | not detected | 0 of 6 | 0 of 18 |
| 36 | GFSLNTYGIS | VIYSDGRRTFYSDSVK | GEAAGTFDS | GPLM_Gen | 190 pM | 2 of 6 | 0 of 18 |
| 37 | GFTLNSYGIS | VIYSDGRRTFYGDSVK | GYAAGTFDL | Ctrl | 18 nM | 4 of 6 | 1 of 18 |
| 38 | GFNLDEYGIS | VIYADGKRTFYADSVK | GEHAGTFDT | En_HC | 2.3 nM | 6 of 6 | 0 of 18 |
| 39 | GFELNSYGIS | VIYSDGRRTFYGDSVK | GATAGTFDL | GPLM_Gibbs | 2.8 nM | 6 of 6 | 0 of 18 |
| 40 | GFELNEFGIS | VIYADGMRASYRDDVK | GDISGDFML | En_Gibbs | not detected | 0 of 6 | 0 of 18 |
| 41 | GFTLNEYGIS | VIYSDGRRTFYTDSVK | GRMAGTFIS | GP_HC | not detected | 0 of 6 | 0 of 18 |
| 42 | GFTLNEYGIS | VIYSDGRRTFYSDSVK | GPAAGTFDR | GP_HC | not detected | 0 of 6 | 0 of 18 |
| 43 | GMDLDEYGIS | VIYADGQRRQYAANVK | GVNIDGFDL | En_Gibbs | not detected | 0 of 6 | 0 of 18 |
| 44 | GKSLNSYGIS | VIYSDGRRTFYGDDVK | GRTAGTFDS | GP_Gen | not detected | 0 of 6 | 0 of 18 |
| 45 | GFDLNEYGIS | VIYADGVRTFYADSVK | GNVAGTFDI | En_Gen | 710 pM | 6 of 6 | 2 of 18 |
| 46 | GFELNEYGIS | VIYSDGRRTFYIDSVK | GRAAGTFDK | GP_Gen | 1.7 nM | 6 of 6 | 0 of 18 |
| 47 | GFELNSYGIS | VIYSDGRRTFYGDDVK | GNVAGTFDK | GP_Gibbs | 8.9 nM | 6 of 6 | 1 of 18 |
| 48 | GFTLESYGIS | VIYSDGRRTFYSDSVK | GNAAGTFDS | Ctrl | 1.8 nM | 4 of 6 | 0 of 18 |
| 49 | GFTLNDYGIS | VIYSDGRRTFYGDSVK | GGIAGTFDS | Ctrl | 390 pM | 6 of 6 | 0 of 18 |
| 50 | GFDLNEYGIS | VIYADGMRTAYSDDVK | GNTAGTFDI | En_Gen | 180 pM | 6 of 6 | 1 of 18 |
| 51 | GFTLESYGIS | VIYSDGKRTFYGDSVK | GRTAGTFDS | GPLM_Gibbs | 5.5 nM | 6 of 6 | 0 of 18 |

Excerpt, the first 5 entries:

CDR-H1,CDR-H2,CDR-H3,group,apparent Kd,replicates with signal,empty controls
GFTLNSYGIS,VIYSDGRRTFYKDSVK,GRSAGTFDS,Ctrl,22 nM,2 of 6,0 of 18
GFTLESYGIS,VIYSDGRRTFYDDSVK,GQIAGTFDS,GP_HC,4.0 nM,6 of 6,0 of 18
GFDLDEYGIS,VIYADGQRTAYADDVK,GENAGTFDV,En_Gen,1.4 nM,6 of 6,0 of 18
GFSLNSYGIS,VIYSDGRRTFYMDAVK,GRWAGTFDS,Ctrl,not detected,0 of 6,0 of 18
GFELNSYGIS,VIYSDGKRTFYGDDVK,GRQAGTFDS,GP_Gibbs,5.7 nM,6 of 6,0 of 18